Data: patent US8975232B2, “Macrocyclic kinase inhibitors and uses thereof” (President and Fellows of Harvard College, priority 2010, dated 2015)

The chains behind the UniProt entries cited, without tags or fusion partners.
UniProt P12931, whole entry: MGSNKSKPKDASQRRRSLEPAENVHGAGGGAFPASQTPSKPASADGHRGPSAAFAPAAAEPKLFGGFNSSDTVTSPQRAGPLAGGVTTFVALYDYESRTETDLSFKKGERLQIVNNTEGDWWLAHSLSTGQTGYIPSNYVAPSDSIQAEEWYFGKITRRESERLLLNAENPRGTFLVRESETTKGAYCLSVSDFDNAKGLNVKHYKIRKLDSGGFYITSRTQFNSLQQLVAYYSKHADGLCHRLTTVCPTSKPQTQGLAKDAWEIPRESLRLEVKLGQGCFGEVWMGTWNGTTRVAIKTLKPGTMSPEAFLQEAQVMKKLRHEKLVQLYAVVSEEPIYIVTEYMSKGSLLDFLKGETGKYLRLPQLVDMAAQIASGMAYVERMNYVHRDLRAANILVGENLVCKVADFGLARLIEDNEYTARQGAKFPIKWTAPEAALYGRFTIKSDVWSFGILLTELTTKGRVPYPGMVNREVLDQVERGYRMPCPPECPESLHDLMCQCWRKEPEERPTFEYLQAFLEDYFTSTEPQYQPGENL

Molecular target: Src kinase (Homo sapiens, UniProt P12931)
Assay: Z'-LYTE kinase assay (Invitrogen), Src
Format: biochemical
Settings: read-out: Src IC50, ATP near KM

## CS(=O)(=O)CCC1NC(=O)C(Cc2ccco2)NC(=O)C(CC2CC2)NC(=O)/C=C\C(=O)NC(C(N)=O)CCNC1=O (stereo not shown)
  IC50: > 100 µM
